According to patent US20190048074A1 (Regeneron, published 2019):

What was measured:
full-length human APLNR [1] = target: T1, full-length human APLNR (human, UniProt P35414 1-380); experiment: cell-based or functional assay
T1 sequence: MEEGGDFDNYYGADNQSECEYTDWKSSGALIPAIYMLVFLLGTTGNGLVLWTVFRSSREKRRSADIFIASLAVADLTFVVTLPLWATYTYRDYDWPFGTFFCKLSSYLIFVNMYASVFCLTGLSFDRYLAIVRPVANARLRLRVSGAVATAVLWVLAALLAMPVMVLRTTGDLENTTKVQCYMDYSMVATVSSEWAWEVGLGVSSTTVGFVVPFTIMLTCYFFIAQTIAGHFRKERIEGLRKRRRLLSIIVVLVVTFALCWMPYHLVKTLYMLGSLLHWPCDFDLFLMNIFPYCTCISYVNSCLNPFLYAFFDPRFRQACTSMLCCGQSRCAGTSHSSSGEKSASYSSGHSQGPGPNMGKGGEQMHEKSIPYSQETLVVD

full-length human APLNR [2] = target: T1, full-length human APLNR; experiment: FACS, HEK293/CRE-luc/hAPLNR cells
[3] = target: T2, full length cynomolgus APLNR (cynomolgus monkey (Macaca fascicularis), UniProt O97666 1-380 (rhesus entry)); experiment: FACS, HEK293/CRE-luc/MfAPLNR cells
T2 construct: Stably expressed on HEK293/CRE-luc/MfAPLNR cells; also called MfAPLNR; mfAPLNR
T2 sequence: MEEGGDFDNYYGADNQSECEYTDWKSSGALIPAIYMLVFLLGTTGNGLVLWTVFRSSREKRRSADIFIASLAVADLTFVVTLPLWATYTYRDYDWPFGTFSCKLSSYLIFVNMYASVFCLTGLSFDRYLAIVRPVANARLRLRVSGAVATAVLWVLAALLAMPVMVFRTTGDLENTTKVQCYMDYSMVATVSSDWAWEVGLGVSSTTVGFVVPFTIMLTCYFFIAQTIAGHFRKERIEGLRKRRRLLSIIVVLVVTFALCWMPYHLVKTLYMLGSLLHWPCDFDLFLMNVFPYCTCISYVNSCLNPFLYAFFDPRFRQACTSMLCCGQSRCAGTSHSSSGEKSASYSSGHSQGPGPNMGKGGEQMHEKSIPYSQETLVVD

full-length human APLNR [4] = target: T1, full-length human APLNR; experiment: cell-based or functional assay; remark: listed apart in the source
full-length human APLNR [5] = target: T1, full-length human APLNR; experiment: FACS, 10 µg/mL antibody, HEK293/CRE-luc/hAPLNR cells
[6] = target: T2, full length cynomolgus APLNR; experiment: FACS, 10 µg/mL antibody, HEK293/CRE-luc/MfAPLNR cells

B1: H4H9093P-2-CVK3 (antibody)
VH: EVQLVESGGGLVKPGGSLRLSCAASGITFSNAWMSWVRQAPGKGLEWVGRFKGKADGGTVDYAAPVKGRFTISRDDSKNTLYLQMNSLKNEDTAVYYCTTGRITMVRGVLGYWGQGTLVTVSS
light: not shown
notes: Antibody-apelin fusion protein; human IgG4 Fc; also called H4H9093P Cter Vk fusion with (G4S)3 linker
- % Activation at 100 nM mAb (10 µM Forskolin) (full-length human APLNR [1]): 100%
- EC50 [M] (10 µM Forskolin) (full-length human APLNR [1]): 9.2e-11 M
- Binding Ratio of Geom. Mean to Unstained Cells (full-length human APLNR [2]): 60 fold
- Binding Ratio of Geom. Mean to Unstained Cells [3]: 28 fold

B2: H4H9093P-6-NVH2 (antibody, V domains shown)
VH: EVQLVESGGGLVKPGGSLRLSCAASGITFSNAWMSWVRQAPGKGLEWVGRFKGKADGGTVDYAAPVKGRFTISRDDSKNTLYLQMNSLKNEDTAVYYCTTGRITMVRGVLGYWGQGTLVTVSS
VL: not shown
notes: Antibody-apelin fusion protein; human IgG4 Fc; also called H4H9093P Nter VH fusion with (G4S)2 linker
- % Activation at 100 nM mAb (10 µM Forskolin) (full-length human APLNR [1]): 100%
- EC50 [M] (10 µM Forskolin) (full-length human APLNR [1]): 8.7e-11 M
- Binding Ratio of Geom. Mean to Unstained Cells (full-length human APLNR [2]): 139 fold
- Binding Ratio of Geom. Mean to Unstained Cells [3]: 47 fold

B3: H4H9093P-4-NVH0 (antibody, V domains shown)
VH: EVQLVESGGGLVKPGGSLRLSCAASGITFSNAWMSWVRQAPGKGLEWVGRFKGKADGGTVDYAAPVKGRFTISRDDSKNTLYLQMNSLKNEDTAVYYCTTGRITMVRGVLGYWGQGTLVTVSS
VL: not shown
notes: Antibody-apelin fusion protein; human IgG4 Fc; also called H4H9093P Nter VH fusion with no linker
- % Inhibition at 100 nM mAb, in the presence of 100 ρM Apelin (at 10 µM Forskolin) (full-length human APLNR [4]): 29%
- Binding Ratio of Geom. Mean to Unstained Cells (full-length human APLNR [2]): 140 fold
- Binding Ratio of Geom. Mean to Unstained Cells [3]: 52 fold

B4: H4H9093P-5-NVH1 (antibody, V domains shown)
VH: EVQLVESGGGLVKPGGSLRLSCAASGITFSNAWMSWVRQAPGKGLEWVGRFKGKADGGTVDYAAPVKGRFTISRDDSKNTLYLQMNSLKNEDTAVYYCTTGRITMVRGVLGYWGQGTLVTVSS
VL: not shown
notes: Antibody-apelin fusion protein; human IgG4 Fc; also called H4H9093P Nter VH fusion with G4S linker
- % Activation at 100 nM mAb (10 µM Forskolin) (full-length human APLNR [1]): 100%
- EC50 [M] (10 µM Forskolin) (full-length human APLNR [1]): 4.6e-10 M
- Binding Ratio of Geom. Mean to Unstained Cells (full-length human APLNR [2]): 151 fold
- Binding Ratio of Geom. Mean to Unstained Cells [3]: 54 fold

B5: H4H9092P-2-NVK3 (antibody, V domains shown)
VH: EVQLVESGGGLVKPGGSLRLSCAASGITFSNAWMSWVRQAPGKGLEWVGRIKSKVDGGTIDYAAPVKGRFTISRDDSKNTLYLQMNSLKTEDTAVYYCTTGRITMVRGVLGYWGQGTLVTVSS
VL: not shown
notes: Antibody-apelin fusion protein; human IgG4 Fc; also called H4H9092P Nter Vk fusion with (G4S)3 linker
- % Activation at 100 nM mAb (10 µM Forskolin) (full-length human APLNR [1]): 100%
- EC50 [M] (10 µM Forskolin) (full-length human APLNR [1]): 2.9e-08 M
- Binding Ratio of Geom. Mean to Unstained Cells (full-length human APLNR [2]): 16 fold
- Binding Ratio of Geom. Mean to Unstained Cells [3]: 6 fold

B6: H4H9093P (antibody, V domains shown)
VH: EVQLVESGGGLVKPGGSLRLSCAASGITFSNAWMSWVRQAPGKGLEWVGRFKGKADGGTVDYAAPVKGRFTISRDDSKNTLYLQMNSLKNEDTAVYYCTTGRITMVRGVLGYWGQGTLVTVSS
VL: not shown
notes: Fully human, human IgG4 Fc
- % Inhibition at 100 nM mAb, in the presence of 100 ρM Apelin (at 10 µM Forskolin) (full-length human APLNR [4]): 16%
- Binding Ratio of Geom. Mean to Unstained Cells (full-length human APLNR [2]): 61 fold
- Binding Ratio of Geom. Mean to Unstained Cells [3]: 31 fold
- Binding Ratio of Geom. Mean to Unstained Cells (full-length human APLNR [5]): 61 fold
- Binding Ratio of Geom. Mean to Unstained Cells [6]: 31 fold

B7: H4H9092P-3-CVK3 (antibody)
VH: EVQLVESGGGLVKPGGSLRLSCAASGITFSNAWMSWVRQAPGKGLEWVGRIKSKVDGGTIDYAAPVKGRFTISRDDSKNTLYLQMNSLKTEDTAVYYCTTGRITMVRGVLGYWGQGTLVTVSS
light: not shown
notes: Antibody-apelin fusion protein; human IgG4 Fc; also called H4H9092P Cter Vk fusion with (G4S)3 linker
- % Activation at 100 nM mAb (10 µM Forskolin) (full-length human APLNR [1]): 100%
- EC50 [M] (10 µM Forskolin) (full-length human APLNR [1]): 7.5e-10 M
- Binding Ratio of Geom. Mean to Unstained Cells (full-length human APLNR [2]): 31 fold
- Binding Ratio of Geom. Mean to Unstained Cells [3]: 15 fold

B8: H4H9092P-1-NVH3 (antibody, V domains shown)
VH: EVQLVESGGGLVKPGGSLRLSCAASGITFSNAWMSWVRQAPGKGLEWVGRIKSKVDGGTIDYAAPVKGRFTISRDDSKNTLYLQMNSLKTEDTAVYYCTTGRITMVRGVLGYWGQGTLVTVSS
VL: not shown
notes: Antibody-apelin fusion protein; human IgG4 Fc; also called H4H9092P Nter VH fusion with (G4S)3 linker
- EC50 [M] (10 µM Forskolin) (full-length human APLNR [1]): 7.3e-11 M
- Binding Ratio of Geom. Mean to Unstained Cells (full-length human APLNR [2]): 79 fold
- Binding Ratio of Geom. Mean to Unstained Cells [3]: 31 fold
